Experiment: Flowability by powder tester Model PT-N, Carr's flowability index method
Type: physicochemical
Protocol: As for evaluation of flowability, parameters of angle of repose, degree of compaction, spatula angle, and degree of aggregation were measured by using a powder tester Model PT-N produced by HOSOKAWA MICRON CORP. based on the method for evaluating Carr's flowability index.

## sodium N-cocoyl glycinate [Na cocoylglycinate]
140 mesh pass cut sample (106 μm)
  Flowability index: 74.0
200 mesh pass cut sample (75 μm)
  Flowability index: 70.0
280 mesh pass cut sample (53 μm)
  Flowability index: 70.0
control, not subjected to sieve classification
  Flowability index: 58.0

Source: US20030162687A1, “Surfactants” (AJINOMOTO CO. INC., priority 2002, published 2003)
